These are literature values, as cited in patent US20100286233A1, “PERIPHERAL AND NEURAL INFLAMMATORY CROSSTALK” (University of Rochester, priority 2006, published 2010).

Chains of the proteins cited; added tags and fusions are not shown.
UniProt P35372, whole entry: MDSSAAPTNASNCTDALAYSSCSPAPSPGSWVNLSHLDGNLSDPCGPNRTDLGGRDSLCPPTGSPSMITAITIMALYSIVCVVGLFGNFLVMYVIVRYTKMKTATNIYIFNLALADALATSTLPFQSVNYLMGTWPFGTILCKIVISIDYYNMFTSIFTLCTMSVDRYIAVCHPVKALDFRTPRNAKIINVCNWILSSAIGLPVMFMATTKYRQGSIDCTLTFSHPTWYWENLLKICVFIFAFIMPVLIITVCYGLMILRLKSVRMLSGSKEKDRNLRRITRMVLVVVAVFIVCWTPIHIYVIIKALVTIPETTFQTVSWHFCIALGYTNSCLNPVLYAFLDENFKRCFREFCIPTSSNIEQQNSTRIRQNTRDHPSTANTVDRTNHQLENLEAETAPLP

This series deals with μ-receptors (Homo sapiens, UniProt P35372). To be noted: cited from earlier work.

Take YPFF-NH2 [endomorphin-2]: the “affinity for μ-receptors” value is “highly selective”.

Take YPWF-NH2 [Endomorphin-1]: the “affinity for μ-receptors” value was “highly selective”.
